In US7091185B2, “Periodic antimicrobial peptides” (Dow Global Technologies Inc., priority 2003, dated 2006):

What was measured:
E. coli ATCC 2592 = system: E. coli ATCC 2592
Procedure: (§1) The bacteria tested were P. aeruginosa American Type Culture Collection Number (ATCC) 10145, E. coli ATCC 2592, and S. aureus (methicillin reseistant) ATTC 33591.
(§2) All experiments were compared to bacterial growth under optimal growth conditions (37° C., pH 7.0, absence of additional salt, growth media—referred to as standard growth conditions). In each plate, no growth control (media alone), positive growth control (bacteria with no test sample), positive antimicrobial controls (agents with known antimicrobial activity) and test compounds were tested.
(§3) The plates were incubated overnight, and the relative percent growth determined by optical density at 620 nm (OD620) using a […] […] PLUS™. […] All samples were tested in duplicate and each assay was repeated at least twice. […] IC50 and MIC are reported in μg/ml.

[1] = system: S. aureus (methicillin resistant) ATCC 33591
Procedure: as §1, §2, §3

C. albicans 10231 = type: cell-based
Procedure: (§4) The MIC and IC50 values were determined by a broth microdilution method according to guidelines of the National Committee for Clinical Laboratory Standard as follows: In 96-well tissue culture plates, a fixed volume of bacterial suspension in 2× broth (as defined below) was added to the mixtures or individual compounds dispensed at concentrations varying from 1,000 to 1 μg/ml derived from serial two-fold dilutions in sterile water. The bacteria tested were P. aeruginosa American Type Culture Collection Number (ATCC) 10145, E. coli ATCC 2592, and S. aureus (methicillin reseistant) ATTC 33591.
(§5) The plates were incubated overnight, and the relative percent growth determined by optical density at 620 nm (OD620) using a TITERTEK MULTISKAN PLUS™. […] IC50 values were calculated using a sigmoidal curve fitting software program (GRAPHPAD,™ ISI Software,™ San Diego, Calif.). All samples were tested in duplicate and each assay was repeated at least twice. In the following table, KFAK is the repeat unit and multimers of KFAK were tested. IC50 and MIC are reported in μg/ml.
(§6) Because the antibacterial activity of the periodic peptides was so promising, further experiments were performed to determine if the periodic peptides also had antifungal activity. The experimental design was similar to that above, with accommodation made for fungal growth requirements, including the use of Sabouraud Dextrose Broth (SDB) and Sabouraud Dextrose Agar (SDA) slants.

Cr. Neoformans 32045 = type: cell-based
Procedure: as §4, §5, §6

Red blood cell toxicity = type: cell-based; conditions: red blood cells (RBC); RBCs; concentration required for 50% toxicity; read-out: TX50
Red blood cells (RBC) = assay: Red blood cell toxicity; type: cell-based
HeLa cell line = assay: HeLa MTS cellular reduction toxicity assay; type: cell-based; conditions: for TX50: 24 h, MTS
Procedure: The RBC protocol was from Blondelle (2000) and is described generally as follows: The toxicity toward the HeLa cell line was determined using a MTS (3-(4-5-dimethylthiazol-2-yl)-5-(3carboxymethoxyphenyl)-2-(4-sulfophenyl)-2H-tetrazolium, sodium salt) cellular reduction assay. MTS (2 mg/mL) was prepared in Dulbecco PBS (pH 7.35), filtered, aliquoted and stored at minus 20° C. In 96 well flat bottomed plates, cell suspensions (250 μL of 6×10^4 cell/mL in each well) were incubated for 48 h at 37° C. (5% CO2 incubator). The peptides (50 μL) were then added to the cell monolayer (following aspiration of the media from each well and addition of 50 μL of Dulbecco's Modified Eagles Medium) at varying concentrations derived from serial 2-fold dilutions, and the plates incubated for 24 h at 37° C. (5% CO2 incubator). Proliferation was then determined by adding a solution of phenazine methosulfate (PMS: 0.92 mg/mL in DPBS) to MTS at a 1:20 ration just prior to the assay. Twenty microliters MTS-PMS solution were added to each well and the plates incubated for 1 h at 37° C. (5% CO2 incubator). The relative percent toxicity was determined by comparing the absorbance at 490 nm of each peptide to the absorbance of cells without peptide. The TX50 (concentration required for 50% toxicity) was calculated using a sigmoidal curve fitting software (Graphpad Prism).

P. aeruginosa ATCC 10145 = system: P. aeruginosa ATCC 10145
Procedure: as §1, §2, §3

P. aeruginosa ATCC 15442 = assay: HMARQ biocidal kill activity; type: cell-based; conditions: P. aeruginosa ATCC 15442 (gram−)
Procedure: (§7) Biocide efficacy protocols were improved by reducing sample size, organizing the test material into an array format, implementing most probable number (MPN) quantitation and using multi-channel liquid handling equipment. We call the new method “high-throughput microanalysis and rapid quantitation” or “HMARQ.” HMARQ is directly applicable to current industrial efficacy tests such as multi-cycle preservation challenge or time course disinfection tests.
(§8) HMARQ is performed in a high throughput plate, such as 96-well microtiter plates. Typical sample volumes have been reduced down to 200 to 300 μL, but can be reduced further if desired. In these samples, no more than 10% of the total volume will be composed of the biocide and organism solution, and all non-matrix additions are normalized for all samples.
(§9) The sample matrix is first inoculated with the desired concentration of microorganisms. Inoculated sample matrix is then added to the 96-well assay block containing the biocide(s) under study. Each sample block contains biocide treated samples and untreated control samples (lacking biocide). Once the samples are prepared, the entire block of samples is mixed by vortexing until each sample is homogenous. In general, the study starts once mixing is complete, and samples are removed as required for the analysis. When Kill Time testing (rate of biocide activity) is performed, the microorganisms are added after biocide addition to the samples, allowing for rapid mixing and analysis.
(§10) Bacterial concentration (CFU/mL) is determined using the most probable number method (MPN). The contaminated solution is serially diluted until the “no growth” endpoint is reached. The endpoint represents the MPN and is expressed in units of the bacterial concentration. A serial 1:10 dilution will yield a bacterial concentration resolution of 1 log and the log reduction is determined by comparing the concentration of organisms in a treated sample to the concentration of organisms in untreated samples. For example, if a sample requires four 1:10 dilutions before bacterial growth is lost then the MPN for bacterial concentration in the sample is less than or equal to 1×10^4 CFU/mL (1E4). […] This method of enumeration is generally applicable to all non-filamentous microorganisms.
(§11) Media included Tryptic Soy Broth (TSB) for bacteria and Sabouraud Dextrose Broth (SDB) for fungi. These are available commercially and prepared according to the manufacturers instructions. Indicator medium was TSB/R for bacteria and SDB/R for fungi. […]
(§12) Using the HMARQ test described above, periodic peptides were generated and tested for Kill Activity. […] Units are expressed as ppm (μg/mL) needed for 3.5 log kill at 15 min or 24 hour and the results are shown below.

Staph. aureus ATCC 6538 = assay: HMARQ biocidal kill activity; type: cell-based; conditions: Staph. aureus ATCC 6538 (gram+)
Procedure: as §7, §8, §9, §10, §11, §12

IC50 (E. coli ATCC 2592) [µg/mL]	MIC (E. coli ATCC 2592) [µg/mL]	IC50 [1] [µg/mL]	MIC [1] [µg/mL]	IC50 (C. albicans 10231) [µg/mL]	MIC (C. albicans 10231) [µg/mL]	IC50 (Cr. Neoformans 32045) [µg/mL]	MIC (Cr. Neoformans 32045) [µg/mL]	IC50 (P. aeruginosa ATCC 10145) [µg/mL]	MIC (P. aeruginosa ATCC 10145) [µg/mL]	SMILES	HC50 at 24 h (Red blood cell toxicity) [µg/mL]	% kill at 250 μg/ml (Red blood cells (RBC)) [%]	% kill at 500 μg/ml (HeLa cell line) [%]	TX50 (HeLa cell line) [µg/mL]	ppm needed for 3.5 log kill at 15 min (P. aeruginosa ATCC 15442; 15 min) [ppm]	ppm needed for 3.5 log kill at 24 hr (P. aeruginosa ATCC 15442; 24 hr) [ppm]	ppm needed for 3.5 log kill at 15 min (Staph. aureus ATCC 6538; 15 min) [ppm]	ppm needed for 3.5 log kill at 24 hr (Staph. aureus ATCC 6538; 24 hr) [ppm]
>250	>250	>500	>500	329 (≈ 668 µM)	>500	400 (≈ 812 µM)	>500			C[C@H](NC(=O)[C@H](Cc1ccccc1)NC(=O)[C@@H](N)CCCCN)C(=O)N[C@@H](CCCCN)C(=O)O [KFAK (1)]	> 500	2.8	112	>500				
>250	>250	>250	>250	>250	>250	>250	>250	>250		C[C@H](NC(=O)[C@H](Cc1ccccc1)NC(=O)[C@H](CCCCN)NC(=O)[C@H](CCCCN)NC(=O)[C@H](C)NC(=O)[C@H](Cc1ccccc1)NC(=O)[C@@H](N)CCCCN)C(=O)N[C@@H](CCCCN)C(=O)O [KFAK (2)]	> 250	2.2	83	>500				
>250	>250	>500	>500	262 (≈ 182 µM)	280 to 500	22 (≈ 15.3 µM)	125 to 250			C[C@H](NC(=O)[C@H](Cc1ccccc1)NC(=O)[C@H](CCCCN)NC(=O)[C@H](CCCCN)NC(=O)[C@H](C)NC(=O)[C@H](Cc1ccccc1)NC(=O)[C@H](CCCCN)NC(=O)[C@H](CCCCN)NC(=O)[C@H](C)NC(=O)[C@H](Cc1ccccc1)NC(=O)[C@@H](N)CCCCN)C(=O)N[C@@H](CCCCN)C(=O)O [KFAK (3)]	> 500	0.4	77	>500				
37 (≈ 21.7 µM)	45 to 62	78 (≈ 45.7 µM)	250 to 500	166 (≈ 97.2 µM)	250 to 500	0.8 (≈ 0.469 µM)	2 to 4	111 (≈ 65 µM)	125 (≈ 73.2 µM)	CC(C)C[C@H](NC(=O)[C@H](CCCCN)NC(=O)[C@H](CC(C)C)NC(=O)[C@H](CCCCN)NC(=O)[C@H](CC(C)C)NC(=O)[C@H](CCCCN)NC(=O)[C@H](CC(C)C)NC(=O)[C@H](CCCCN)NC(=O)[C@H](CC(C)C)NC(=O)[C@H](CCCCN)NC(=O)[C@H](CC(C)C)NC(=O)[C@H](CCCCN)NC(=O)[C@@H](N)CC(C)C)C(=O)N[C@@H](CCCCN)C(=O)O [LK (7)]	> 500	16	29.6	309	8	8	16	4

≈ marks a conversion by molar mass, not a printed value.
